From PMC10771525 (Communications Biology, 2024)

By UniProt entry, the sequences of proteins in these tests, tags left out. Residues count along the entry.
UniProt P41586, 21-468: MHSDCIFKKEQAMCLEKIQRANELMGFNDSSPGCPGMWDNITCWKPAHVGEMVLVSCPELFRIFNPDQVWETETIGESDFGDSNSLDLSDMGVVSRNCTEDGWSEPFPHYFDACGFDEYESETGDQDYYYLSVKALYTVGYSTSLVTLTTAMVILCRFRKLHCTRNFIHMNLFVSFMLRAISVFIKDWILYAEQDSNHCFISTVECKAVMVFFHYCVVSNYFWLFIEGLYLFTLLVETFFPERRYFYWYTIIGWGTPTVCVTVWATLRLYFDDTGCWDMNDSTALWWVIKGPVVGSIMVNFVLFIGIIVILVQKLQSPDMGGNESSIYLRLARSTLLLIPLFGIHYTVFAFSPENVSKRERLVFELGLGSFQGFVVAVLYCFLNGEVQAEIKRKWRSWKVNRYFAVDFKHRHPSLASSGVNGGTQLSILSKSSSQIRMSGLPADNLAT
UniProt P55085, 26-397: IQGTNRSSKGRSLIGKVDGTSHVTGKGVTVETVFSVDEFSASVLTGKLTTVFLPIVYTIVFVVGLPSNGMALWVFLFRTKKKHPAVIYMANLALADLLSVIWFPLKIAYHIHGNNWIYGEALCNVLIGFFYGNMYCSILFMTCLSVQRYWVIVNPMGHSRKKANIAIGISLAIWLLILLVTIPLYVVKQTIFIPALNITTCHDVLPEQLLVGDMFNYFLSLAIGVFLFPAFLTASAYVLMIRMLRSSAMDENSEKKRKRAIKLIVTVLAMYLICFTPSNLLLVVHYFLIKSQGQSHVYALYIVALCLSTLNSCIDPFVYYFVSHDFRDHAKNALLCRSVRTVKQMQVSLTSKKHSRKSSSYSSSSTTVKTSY
UniProt P49190, 25-550: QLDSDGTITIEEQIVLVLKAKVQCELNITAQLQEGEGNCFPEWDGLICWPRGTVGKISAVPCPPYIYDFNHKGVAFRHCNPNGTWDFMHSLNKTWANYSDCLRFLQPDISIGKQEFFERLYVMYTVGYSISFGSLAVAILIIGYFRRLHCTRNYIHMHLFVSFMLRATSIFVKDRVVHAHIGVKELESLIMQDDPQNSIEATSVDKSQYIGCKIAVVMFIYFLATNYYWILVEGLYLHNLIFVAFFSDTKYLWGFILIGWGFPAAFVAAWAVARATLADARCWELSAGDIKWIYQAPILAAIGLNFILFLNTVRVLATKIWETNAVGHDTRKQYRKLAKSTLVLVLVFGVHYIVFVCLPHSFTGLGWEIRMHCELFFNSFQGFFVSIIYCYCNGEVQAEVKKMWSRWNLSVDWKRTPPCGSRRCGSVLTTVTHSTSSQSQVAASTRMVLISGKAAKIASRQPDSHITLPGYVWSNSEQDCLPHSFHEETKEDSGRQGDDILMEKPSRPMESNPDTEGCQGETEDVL

Legend:
[1] = target: T1, F2RL3 (Homo sapiens, UniProt Q96RI0); assay: GPCR panel (control), Arrestin, CHO-K1; assay type: cell-based; details: reference agonist
T1 construct: expressed in transfected cells; host or cells: CHO-K1
T1 sequence (Q96RI0 18-385): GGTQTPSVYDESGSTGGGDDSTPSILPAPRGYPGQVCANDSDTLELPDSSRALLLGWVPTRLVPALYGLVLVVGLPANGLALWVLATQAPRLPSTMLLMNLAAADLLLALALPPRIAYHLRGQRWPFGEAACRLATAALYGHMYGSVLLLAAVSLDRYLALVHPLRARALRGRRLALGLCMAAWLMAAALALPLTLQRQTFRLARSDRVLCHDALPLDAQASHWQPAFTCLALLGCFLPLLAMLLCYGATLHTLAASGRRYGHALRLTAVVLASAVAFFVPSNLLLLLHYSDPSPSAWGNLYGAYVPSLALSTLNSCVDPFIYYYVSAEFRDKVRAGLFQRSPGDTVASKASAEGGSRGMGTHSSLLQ

[2] = target: T2, MRGPRX2 (Homo sapiens, UniProt Q96LB1); assay: GPCR panel (control), Arrestin, CHO-K1; assay type: cell-based; details: reference agonist
T2 sequence (Q96LB1 1-330): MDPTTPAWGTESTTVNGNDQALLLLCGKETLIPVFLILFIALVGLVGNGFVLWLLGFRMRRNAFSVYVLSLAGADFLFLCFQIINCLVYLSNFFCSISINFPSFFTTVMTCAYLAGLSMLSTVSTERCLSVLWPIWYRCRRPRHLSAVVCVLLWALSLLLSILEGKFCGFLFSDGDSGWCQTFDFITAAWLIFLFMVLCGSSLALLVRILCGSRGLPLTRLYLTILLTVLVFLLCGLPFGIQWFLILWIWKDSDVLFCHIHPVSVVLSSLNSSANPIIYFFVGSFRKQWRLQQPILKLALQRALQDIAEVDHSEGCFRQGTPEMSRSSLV

[3] = target: T3, EDNRB (Homo sapiens, UniProt P24530); assay: GPCR panel (control), Arrestin, CHO-K1; assay type: cell-based; details: reference agonist
T3 construct: expressed in transfected cells; host or cells: CHO-K1
T3 sequence (P24530 27-442): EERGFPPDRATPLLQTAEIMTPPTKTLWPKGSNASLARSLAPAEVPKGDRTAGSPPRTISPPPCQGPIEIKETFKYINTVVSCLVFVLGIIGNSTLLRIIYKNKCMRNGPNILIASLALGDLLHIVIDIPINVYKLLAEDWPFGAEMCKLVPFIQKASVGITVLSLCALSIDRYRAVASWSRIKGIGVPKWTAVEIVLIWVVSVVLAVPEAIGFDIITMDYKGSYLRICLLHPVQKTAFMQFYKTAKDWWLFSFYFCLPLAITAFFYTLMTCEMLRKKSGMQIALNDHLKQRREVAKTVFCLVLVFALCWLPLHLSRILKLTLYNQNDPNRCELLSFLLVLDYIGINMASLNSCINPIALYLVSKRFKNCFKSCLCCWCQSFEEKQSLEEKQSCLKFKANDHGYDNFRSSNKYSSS

[4] = target: ADCYAP1R1 (Homo sapiens, UniProt P41586); details: reference agonist, ADCYAP1R1, CHO-K1, Arrestin
[5] = target: T4, F2RL1 (Homo sapiens, UniProt P55085); assay: GPCR panel (control), Arrestin, U2OS; assay type: cell-based; details: reference agonist
T4 construct: expressed in transfected cells; host or cells: U2OS

[6] = target: T5, CRHR2 (Homo sapiens, UniProt Q13324); assay: GPCR panel (control), Arrestin, CHO-K1; assay type: cell-based; details: reference agonist
T5 construct: expressed in transfected cells; host or cells: CHO-K1
T5 sequence (Q13324 1-411): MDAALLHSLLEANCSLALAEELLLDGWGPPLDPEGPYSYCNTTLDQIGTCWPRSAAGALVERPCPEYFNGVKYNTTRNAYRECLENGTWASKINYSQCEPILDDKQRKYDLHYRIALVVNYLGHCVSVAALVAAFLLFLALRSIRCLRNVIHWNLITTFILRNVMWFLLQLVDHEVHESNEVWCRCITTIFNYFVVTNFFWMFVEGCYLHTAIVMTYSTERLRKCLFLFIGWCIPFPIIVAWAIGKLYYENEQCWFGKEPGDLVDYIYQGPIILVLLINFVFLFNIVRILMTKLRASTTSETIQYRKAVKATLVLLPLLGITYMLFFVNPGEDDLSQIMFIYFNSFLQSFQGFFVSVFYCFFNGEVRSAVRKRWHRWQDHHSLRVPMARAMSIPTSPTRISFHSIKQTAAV

[7] = target: T6, CRHR1 (Homo sapiens, UniProt P34998); assay: GPCR panel (control), Arrestin, CHO-K1; assay type: cell-based; details: reference agonist
T6 construct: expressed in transfected cells; host or cells: CHO-K1
T6 sequence (P34998 24-415): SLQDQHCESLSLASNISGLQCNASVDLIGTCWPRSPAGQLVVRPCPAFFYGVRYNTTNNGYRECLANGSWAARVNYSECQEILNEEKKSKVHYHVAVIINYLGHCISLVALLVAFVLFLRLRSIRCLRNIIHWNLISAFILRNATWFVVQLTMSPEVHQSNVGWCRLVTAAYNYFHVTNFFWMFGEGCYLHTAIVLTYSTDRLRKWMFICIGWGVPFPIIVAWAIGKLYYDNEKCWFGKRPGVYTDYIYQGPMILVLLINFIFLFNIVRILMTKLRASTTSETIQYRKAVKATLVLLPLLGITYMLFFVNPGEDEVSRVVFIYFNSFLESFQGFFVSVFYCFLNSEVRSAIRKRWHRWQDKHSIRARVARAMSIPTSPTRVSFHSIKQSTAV

[8] = target: T7, F2R (Homo sapiens, UniProt P25116); assay: GPCR panel (control), Arrestin, CHO-K1; assay type: cell-based; details: reference agonist
T7 construct: expressed in transfected cells; host or cells: CHO-K1
T7 sequence (P25116 22-425): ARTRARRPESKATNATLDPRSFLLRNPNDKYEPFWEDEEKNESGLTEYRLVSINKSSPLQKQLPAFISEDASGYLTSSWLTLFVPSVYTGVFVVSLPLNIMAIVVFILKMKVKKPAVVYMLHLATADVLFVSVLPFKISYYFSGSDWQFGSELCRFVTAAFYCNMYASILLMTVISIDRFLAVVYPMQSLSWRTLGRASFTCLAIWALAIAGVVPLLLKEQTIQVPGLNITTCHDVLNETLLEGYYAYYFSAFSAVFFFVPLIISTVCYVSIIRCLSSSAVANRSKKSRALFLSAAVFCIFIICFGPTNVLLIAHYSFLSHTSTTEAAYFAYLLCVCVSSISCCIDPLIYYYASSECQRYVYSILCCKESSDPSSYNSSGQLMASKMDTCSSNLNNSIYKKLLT

[9] = target: T8, PTHR2 (Homo sapiens, UniProt P49190); assay: GPCR panel (control), Arrestin, CHO-K1; assay type: cell-based; details: reference agonist
T8 construct: expressed in transfected cells; host or cells: CHO-K1

Substance AYPGKF-NH2 has an EC50 [1] of 12000 nM.
Work on Cortistatin-14 yielded an EC50 [2] of 130 nM.
Substance Endothelin-3 has an EC50 [3] of 12 nM.
Work on PACAP-27 yielded an EC50 [4] of 4.7 nM.
With SLIGRL-NH2 the EC50 [5] was 1000 nM.
With Sauvagine the EC50 [6] was 9.8 nM, the EC50 [7] was 1 nM and the “EC80” value [7] was 59 nM.
TFLLR-NH2 gave an EC50 [8] of 29000 nM.
TIP-39 was tested, and the EC50 [9] was 4.2 nM.
